This test concerns the target Histamine H3 receptor (Homo sapiens, UniProt Q9Y5N1). The experiment in a line: Displacement of [125I]iodoproxyfan from human histamine H3 receptor expressed in CHO-K1 cells. Type of test: cell-based. (Loss of bound radioactivity is the signal in a displacement assay; it reports binding, not function.)

Amino acid sequences for entries named in this document (tags omitted). A change or cut given only in a name is not applied to a line headed by its entry.
UniProt Q9Y5N1: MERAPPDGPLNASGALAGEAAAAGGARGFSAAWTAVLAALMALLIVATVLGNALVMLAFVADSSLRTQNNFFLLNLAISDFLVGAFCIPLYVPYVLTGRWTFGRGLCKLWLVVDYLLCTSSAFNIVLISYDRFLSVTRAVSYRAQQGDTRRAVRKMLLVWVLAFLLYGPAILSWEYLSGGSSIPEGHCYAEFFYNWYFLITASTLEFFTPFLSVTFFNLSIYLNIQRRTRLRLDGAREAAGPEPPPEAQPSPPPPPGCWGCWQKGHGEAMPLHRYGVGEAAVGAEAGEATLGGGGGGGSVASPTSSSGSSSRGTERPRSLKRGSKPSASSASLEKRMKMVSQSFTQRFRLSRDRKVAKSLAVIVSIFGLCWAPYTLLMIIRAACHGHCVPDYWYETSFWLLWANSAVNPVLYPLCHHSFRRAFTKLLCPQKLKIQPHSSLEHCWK

The results in this text go back to ChEMBL document CHEMBL2412999, “Anticonvulsant properties of histamine H3 receptor ligands belonging to N-substituted carbamates of imidazopropanol” (Bioorg Med Chem Lett, 2013).

For orientation: Ki means a measure of affinity in units of concentration, obtained from inhibition or displacement. A higher Ki goes with a looser hold on the target.

The structures appear in SMILES notation.

In turn, `C=CCCNC(=O)OCCCc1c[nH]cn1` gave a Ki of 550 nM.
